Data taken from patent publication US20160053026A1, “METHODS FOR TREATING INFECTION BY HPV” (STC.UNM, priority 2011, published 2016).

Experiments:
[1] = system: HPV[+] human keratinocytes; assay: MTT cell viability assay, HPV[+] cells; type: cell-based; details: cetuximab 50, 100, 200 μg/mL; PD98059 12.5, 25, 50 μM; MTT after 72 hours (seven days)
Experimental: (§1) FIG. 7. Effect of Erb and MAPK inhibitors on cells survival in HPV[−] and HPV[+] human keratinocytes. Cells were grown for seven days in fibroblast conditioned media containing 0 μg/mL [M], 50 μg/mL, 100 μg/mL, or 200 μg/mL Cetuximab or 12.5 μM, 25 μM, or 50 μM PD98059as indicated by the wedges. The boxes indicate the same concentrations used in the FIG. 3 and FIG. 5. MTT assays were performed to assess cell viability. Error bars represent SEM (N=3).
(§2) Cetuximab's effect was recently assessed on MAPK activation and proliferation in two cervical cancer cell lines long in culture, but with no investigation of HPV involvement (Meira et al., 2009, Br J Cancer 101:782-791). Our approach was similar, investigating differences between HPV16 positive (HPV[+]) and HPV negative (HPV[−]) cell lines, however, and investigating the effects of additional EGFR signaling inhibitors. […] Western blot was performed (FIG. 5) and cell viability determined with MTT assay and clonogenic assays performed as described (FIG. 7) (Meira et al., 2009, Euro J Cancer 45:1265-1273).
(§3) The proliferative capacity of MAPK inhibitor-treated cells compared to untreated cells was measured by MTT assay after 72 hours to determine the surviving fractions (FIG. 7). […]

[2] = system: HPV16 E1^E4 early mRNA; assay: RT-qPCR of HPV16 E1^E4 early mRNA in HPV[+] HFK cells; type: cell-based; details: cetuximab 100 μg/mL or PD98059 25 μM, 24-96 hours
Experimental: FIG. 8. HPV16 E1̂E4 early mRNA levels in response to treatment with EGFR or MAPK inhibitors. HPV[+] HFK cells incubated in fibroblast conditioned media containing 100 μg/mL Cetuximab or 25 μM PD98059. Total RNA harvested at indicated time points was subjected to RT and then to qPCR for β-actin and HPV16 E1̂E4 quantification. […] Data are the result of two separate experiments.
Reduced HPV expression can restore functional levels of p53 and pRb. We quantified HPV early mRNAs E1̂E4 /E5 using RT-qPCR following the exposure of the cell lines to the active doses of EGF, cetuximab, and PD98059 used in FIGS. 6 and FIG. 7.
HPV[+] HFK cells were incubated in fibroblast conditioned media containing 100 μg/mL cetuximab or 25 μM PD98059. Total RNA harvested at 24 hours, 48 hours, 72 hours, or 96 hours was subjected to RT and then to qPCR for β-actin and HPV16 E1̂E4 quantification. Statistically significant decreases in HPV16 E1̂E4 transcript levels in response to treatments are indicated.
(§4) TURBO DNA-free Kit (Ambion) to remove co-purifying viral and cellular DNA. Reverse transcription (RT) of total RNAs (0.2-0.5 μg) was performed using random hexamer primers and ABI reagents (Applied Biosystems). For quantitative PCR (qPCR), 2 μl of each cDNA or total DNA was analyzed in triplicate using the SYBR Green I kit on the iCycler (Bio-Rad Laboratories, Inc., Hercules, Calif.).

[3] = system: HPV[−] human keratinocytes; assay: MTT cell viability assay, HPV[−] cells; type: cell-based; details: cetuximab 50, 100, 200 μg/mL; PD98059 12.5, 25, 50 μM; MTT after 72 hours (seven days)
Experimental: as §1, §2, §3

[4] = system: HPV16 viral genome; assay: qPCR of HPV16 LCR (viral genome number) in HPV[+] HFK cells; type: cell-based; details: cetuximab 100 μg/mL or PD98059 25 μM, two to six days after treatment
Experimental: FIG. 9. Response of HPV16 viral genome number to EGFR or MAPK Inhibitors. HPV[+] HFK cells incubated in fibroblast conditioned media containing 100 μg/mL Cetuximab (M=Media only) or 25 μM PD98059 (Ø=Media+DMSO). Total DNA harvested at indicated time points was subjected to qPCR for HPV16 LCR quantification. […] Data are the result of 2 separate experiments. (* p<0.05, ** p<0.01).
HPV[+] HFK cells were incubated in fibroblast conditioned media containing 100 μg/mL cetuximab (M=Media only) or 25 μM PD98059 (Ø=Media+DMSO). Total DNA harvested at two days, three days, four days, five days, or six days after treatment was subjected to qPCR (SYBR Green I kit on the BioRad iCycler) for HPV16 LCR quantification. Statistically significant decreases in HPV16 genome levels are indicated. Total RNAs were extracted from cells using TRIzol (Invitrogen), and processed with the
as §4

[5] = system: p-ERK1/2; assay: Immunoblot for p-ERK1/2 (MAPK signaling) after EGF stimulation in HPV[+] and HPV[−] keratinocytes; type: cell-based, human; details: cetuximab 100 μg/mL or PD98059 25 μM; 10 ng/mL EGF in SFM, 5 or 15 minutes; SG3 (HPV16[+]) and NIKS (HPV[−]) cells
Experimental: (§5) FIG. 5. Response of Erb RTK pathway signaling in HPV[−] or HPV[+] human keratinocytes following inhibition of EGFR with cetuximab and MEK with PD98059. Cells were serum starved for 8 hours prior to mock (M) treatment, treatment with diluent in SFM and 10 ng/ml EGF (Ø), cetuximab (C, 100 μg/mL) or MEK inhibitor PD98059 (P, 25 μM) before and during exposure to 10 ng/mL EGF in SFM for indicated times. Mock=No EGF. Cell lysates were harvested and subjected to SDS-PAGE and immunoblot for p-EGFR, total EGFR, p-ERK1/2 and GAPDH, a loading control.
(§6) Cetuximab's effect was recently assessed on MAPK activation and proliferation in two cervical cancer cell lines long in culture, but with no investigation of HPV involvement (Meira et al., 2009, Br J Cancer 101:782-791). Our approach was similar, investigating differences between HPV16 positive (HPV[+]) and HPV negative (HPV[−]) cell lines, however, and investigating the effects of additional EGFR signaling inhibitors. Cells were grown in monolayer cultures and exposed to clinically relevant doses of EGF (0.1 ng/ml or 10 ng/ml, 5-15 minutes), cetuximab (100 μg/ml, 4 hours), PD98059 (25 μM, 1 hour). Western blot was performed (FIG. 5) and cell viability determined with MTT assay and clonogenic assays performed as described (FIG. 7) (Meira et al., 2009, Euro J Cancer 45:1265-1273). […]

[6] = system: EGFR; assay: Immunoblot for p-EGFR after EGF stimulation in HPV[+] and HPV[−] keratinocytes; type: cell-based, human; details: cetuximab 100 μg/mL or PD98059 25 μM; 10 ng/mL EGF in SFM, 5 or 15 minutes; SG3 (HPV16[+]) and NIKS (HPV[−]) cells
Experimental: as §5, §6

**Q.** With cetuximab as the substance, how does the “viability of HPV[+] cells (MTT)” value [1] read?
**A.** dose-dependent decrease in viability

**Q.** And the “HPV16 E1^E4 transcript levels” value [2]?
**A.** decrease is statistically significant after 48 hours of treatment

**Q.** And the “viability of HPV[−] cells (MTT)” value [3]?
**A.** dose-dependent decrease in viability

**Q.** What about the “HPV16 genome levels (LCR qPCR) compared to mock treated” value [4] of the same substance?
**A.** statistically significant decrease in HPV16 genome levels

**Q.** What about the “downstream / MAPK signaling (p-ERK1/2)” value [5] of the same substance?
**A.** decreased downstream signaling

**Q.** What about the “EGFR activation (p-EGFR)” value [6] of the same substance?
**A.** decreased EGFR activation
